{"sequences": {"note": "By UniProt entry, the sequences of proteins in these tests, tags left out.", "UniProt P35561, whole entry": "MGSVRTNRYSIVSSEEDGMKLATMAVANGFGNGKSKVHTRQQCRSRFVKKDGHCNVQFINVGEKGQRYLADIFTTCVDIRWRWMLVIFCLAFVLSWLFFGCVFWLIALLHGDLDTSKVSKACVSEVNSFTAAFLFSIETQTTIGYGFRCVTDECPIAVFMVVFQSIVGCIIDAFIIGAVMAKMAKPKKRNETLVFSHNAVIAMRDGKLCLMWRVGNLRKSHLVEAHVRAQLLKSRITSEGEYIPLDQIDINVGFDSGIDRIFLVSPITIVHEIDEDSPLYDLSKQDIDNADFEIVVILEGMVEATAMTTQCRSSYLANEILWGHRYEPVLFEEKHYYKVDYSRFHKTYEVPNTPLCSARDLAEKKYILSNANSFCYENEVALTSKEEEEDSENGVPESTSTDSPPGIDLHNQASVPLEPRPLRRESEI"}, "source": "PubChem BioAssay AID492993", "about": "(Johns Hopkins Ion Channel Center, 2010)", "note": "This is a selection; strong and weak results do not stand in their true shares. Calls of active or inactive are those of the source.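 Rule for the calls: active = thallium signal drop more than 5 SD beyond the mean of the no-compound control wells, seen in both duplicate plates; inactive = the rest.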"}
{"target": "Inward rectifier potassium channel 2 (Mus musculus) (UniProt P35561)", "assay": "mouse Kir2.1 channel inhibition, confirmation, selectivity assay for KCNK9 modulator project, cell-based, HEK293, thallium flux (AID 492993)", "details": "Kir2.1 cells, FluxOR thallium flux fluorescence; at 10 µM"}
{"smiles": "COc1cccc(C(=O)N(c2cc(C)cc(C)c2)C2CCN(C(=O)OC(C)(C)C)CC2)c1", "outcome": "inactive"}
{"smiles": "CC(C)(C)OC(=O)N1CCC(N(C(=O)c2ccccc2)c2ccc(Cl)cc2)CC1", "outcome": "inactive"}
{"smiles": "Cc1cc(C)cc(N(C(=O)c2ccccc2)C2CCN(C(=O)OC(C)(C)C)CC2)c1", "outcome": "inactive"}
{"smiles": "CC(C)(C)OC(=O)N1CCC(N(C(=O)c2ccccc2)c2ccc(F)cc2)CC1", "outcome": "inactive"}
